We go through 15 molecules from patent US20110039779A1 (published 2011).

Protein sequences, listed by entry. Tags and fused reporters are not part of them. Residues count along the entry.
UniProt P08069, 31-1367 limits assumed: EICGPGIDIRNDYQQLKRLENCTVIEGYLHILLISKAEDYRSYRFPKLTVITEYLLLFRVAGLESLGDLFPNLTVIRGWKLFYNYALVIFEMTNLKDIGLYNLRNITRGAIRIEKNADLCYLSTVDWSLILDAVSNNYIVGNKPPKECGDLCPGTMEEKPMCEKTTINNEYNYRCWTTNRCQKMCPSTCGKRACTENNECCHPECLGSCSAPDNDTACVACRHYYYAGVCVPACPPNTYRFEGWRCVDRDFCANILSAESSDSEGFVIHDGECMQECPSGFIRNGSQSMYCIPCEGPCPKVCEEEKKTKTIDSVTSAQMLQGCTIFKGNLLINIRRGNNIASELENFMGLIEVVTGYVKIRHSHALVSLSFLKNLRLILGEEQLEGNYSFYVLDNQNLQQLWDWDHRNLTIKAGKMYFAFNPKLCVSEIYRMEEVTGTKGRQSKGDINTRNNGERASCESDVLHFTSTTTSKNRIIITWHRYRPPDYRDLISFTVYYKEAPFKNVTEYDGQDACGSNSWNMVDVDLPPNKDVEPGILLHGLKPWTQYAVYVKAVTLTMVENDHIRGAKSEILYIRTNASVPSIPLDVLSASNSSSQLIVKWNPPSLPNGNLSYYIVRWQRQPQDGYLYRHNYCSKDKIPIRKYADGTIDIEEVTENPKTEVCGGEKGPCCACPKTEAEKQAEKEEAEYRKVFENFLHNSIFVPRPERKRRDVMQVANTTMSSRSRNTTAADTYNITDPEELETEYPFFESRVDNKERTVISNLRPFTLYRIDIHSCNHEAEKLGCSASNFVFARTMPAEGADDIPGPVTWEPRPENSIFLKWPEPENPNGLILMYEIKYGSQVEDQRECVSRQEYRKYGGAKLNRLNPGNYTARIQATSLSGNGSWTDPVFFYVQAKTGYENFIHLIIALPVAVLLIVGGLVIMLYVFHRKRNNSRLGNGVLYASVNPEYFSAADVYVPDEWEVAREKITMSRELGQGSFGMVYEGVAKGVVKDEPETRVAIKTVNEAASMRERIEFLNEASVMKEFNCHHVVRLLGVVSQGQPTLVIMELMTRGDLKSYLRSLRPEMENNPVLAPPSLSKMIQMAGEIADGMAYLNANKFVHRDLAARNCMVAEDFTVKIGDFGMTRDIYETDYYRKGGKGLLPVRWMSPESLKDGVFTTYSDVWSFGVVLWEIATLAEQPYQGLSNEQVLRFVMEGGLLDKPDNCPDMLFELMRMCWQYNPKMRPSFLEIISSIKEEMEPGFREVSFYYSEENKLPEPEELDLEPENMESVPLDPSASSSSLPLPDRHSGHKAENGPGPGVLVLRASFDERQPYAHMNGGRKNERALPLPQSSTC
UniProt P08069, 31-935: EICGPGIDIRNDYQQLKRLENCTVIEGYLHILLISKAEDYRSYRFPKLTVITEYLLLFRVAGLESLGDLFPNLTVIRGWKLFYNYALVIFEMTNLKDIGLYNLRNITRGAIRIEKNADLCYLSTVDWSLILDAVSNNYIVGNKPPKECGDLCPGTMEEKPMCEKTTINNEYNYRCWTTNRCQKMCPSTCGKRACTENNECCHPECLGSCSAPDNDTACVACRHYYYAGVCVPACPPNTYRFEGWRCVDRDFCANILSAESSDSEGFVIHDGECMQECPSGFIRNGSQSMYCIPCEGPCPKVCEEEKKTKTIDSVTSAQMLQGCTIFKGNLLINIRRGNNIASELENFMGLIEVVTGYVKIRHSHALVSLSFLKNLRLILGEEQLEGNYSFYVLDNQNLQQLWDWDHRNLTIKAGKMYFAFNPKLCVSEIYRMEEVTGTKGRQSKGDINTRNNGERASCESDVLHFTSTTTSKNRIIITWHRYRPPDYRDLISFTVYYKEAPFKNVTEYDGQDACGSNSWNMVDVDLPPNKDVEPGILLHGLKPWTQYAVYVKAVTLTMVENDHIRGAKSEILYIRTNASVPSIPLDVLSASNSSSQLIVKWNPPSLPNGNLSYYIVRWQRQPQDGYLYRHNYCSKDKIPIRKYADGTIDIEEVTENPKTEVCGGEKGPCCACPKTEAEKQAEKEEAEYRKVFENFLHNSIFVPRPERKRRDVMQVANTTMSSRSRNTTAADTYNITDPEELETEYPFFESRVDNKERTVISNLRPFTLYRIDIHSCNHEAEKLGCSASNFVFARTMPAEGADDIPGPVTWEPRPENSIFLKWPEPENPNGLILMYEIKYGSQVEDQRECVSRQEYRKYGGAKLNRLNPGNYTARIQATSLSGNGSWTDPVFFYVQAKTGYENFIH
UniProt P06213, 28-1382 limits assumed: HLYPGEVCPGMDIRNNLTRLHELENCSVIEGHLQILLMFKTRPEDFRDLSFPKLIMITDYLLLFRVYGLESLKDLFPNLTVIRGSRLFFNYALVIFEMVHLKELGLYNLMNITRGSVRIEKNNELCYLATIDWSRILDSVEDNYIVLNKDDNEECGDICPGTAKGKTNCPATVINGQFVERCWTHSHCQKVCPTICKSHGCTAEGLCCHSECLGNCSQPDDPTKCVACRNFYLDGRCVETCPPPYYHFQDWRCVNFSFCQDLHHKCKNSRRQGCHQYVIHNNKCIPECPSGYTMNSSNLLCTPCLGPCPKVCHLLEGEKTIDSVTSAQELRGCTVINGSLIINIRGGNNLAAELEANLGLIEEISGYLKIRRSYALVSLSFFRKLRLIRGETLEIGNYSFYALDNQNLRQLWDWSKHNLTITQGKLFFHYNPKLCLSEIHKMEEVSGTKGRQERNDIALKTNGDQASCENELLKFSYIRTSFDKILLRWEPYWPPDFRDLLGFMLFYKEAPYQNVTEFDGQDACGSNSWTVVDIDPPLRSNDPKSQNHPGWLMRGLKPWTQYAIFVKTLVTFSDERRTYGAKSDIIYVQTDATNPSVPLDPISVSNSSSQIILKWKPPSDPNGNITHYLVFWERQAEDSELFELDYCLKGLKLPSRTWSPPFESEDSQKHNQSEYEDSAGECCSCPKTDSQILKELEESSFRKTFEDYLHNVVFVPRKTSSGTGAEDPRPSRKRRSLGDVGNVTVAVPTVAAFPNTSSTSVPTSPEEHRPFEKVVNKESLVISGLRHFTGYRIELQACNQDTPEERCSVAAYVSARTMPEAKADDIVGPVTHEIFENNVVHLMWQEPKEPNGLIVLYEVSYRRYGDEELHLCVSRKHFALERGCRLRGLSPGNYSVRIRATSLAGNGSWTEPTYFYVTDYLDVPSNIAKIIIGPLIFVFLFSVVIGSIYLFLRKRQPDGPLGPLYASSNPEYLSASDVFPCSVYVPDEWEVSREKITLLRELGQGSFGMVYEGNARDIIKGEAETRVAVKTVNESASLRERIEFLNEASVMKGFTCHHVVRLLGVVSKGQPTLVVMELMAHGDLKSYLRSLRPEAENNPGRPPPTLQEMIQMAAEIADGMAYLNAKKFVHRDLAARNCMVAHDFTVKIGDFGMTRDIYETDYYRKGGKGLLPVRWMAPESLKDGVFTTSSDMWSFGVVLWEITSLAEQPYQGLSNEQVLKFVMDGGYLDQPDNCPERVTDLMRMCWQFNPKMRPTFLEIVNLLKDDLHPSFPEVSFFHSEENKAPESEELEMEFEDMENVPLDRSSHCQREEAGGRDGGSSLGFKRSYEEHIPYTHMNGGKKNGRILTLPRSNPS

The chains are these.
B1: F255 (peptide)
peptide: EGSLDESFYDWFERQLGGYSWLRDVLMEKQAQLKREGSVGRQE
modifications: two Pox units (8-amino-3,6-dioxaoctanoic acid; printed 'POX2') between the two peptide parts

One may read the Kd as a measure of binding affinity in units of concentration. Low readings indicate higher affinity, high ones lower affinity. Broadly, the IC50 is the concentration that inhibits the measured activity by half.

The first test has as its target T1, Human IGF-1R (HIGF-1R), purified from BHK cells stably transfected with IGF-1R cDNA (human, UniProt P08069 31-1367).
T1 construct: Receptor preparation of the PEG, SPA and kinase assays; also called HIGFIR; human insulin-like growth factor-1 receptor
The experiment in a line: 125I-IGF-1 competition on purified HIGF-1R (affinity assay of Table 4); unit inferred.
For the molecule NFYGCLLDLSLGVPSFGWRRRCITA [F408], the Kd stood at 1.6 nM.

DFYGCLLDLSLGVPSLGWRRRCITA (also called Test Article F429) [F429]: the affinity, expressed as Kd, was 0.63 nM.

In another test the target is T1, Human IGF-1R (HIGF-1R), purified from …. Description: column 'Binding (nM)'; same values as Kd of Table 9; 125I-IGF-1 competition on purified HIGF-1R.
NFYGCLLDLSLGVPSFGWRRRCITA [F408] came in with a dissociation constant Kd of 1.6 nM.

Regarding DFYGCLLDLSLGVPSLGWRRRCITA (also called Test Article F429) [F429], the affinity, expressed as Kd, was 0.63 nM.

The target in a further test is T2, human insulin-like growth factor-1 receptor (HIGF-1R) (human, UniProt P08069 31-1367).
T2 construct: Detergent-solubilised receptor purified on WGA-agarose; also called HIGFIR
The experiment in a line: 125I-IGF-1 displacement, SPA-assay. From the text: In certain cases, a scintillation proximity assay (SPA assay) was used to determine IGF-1R affinity.
QFYGCLLDLSLGVPSFGWRRRCITA [F138] displayed a Kd of 6.1 nM.

A further test deals with T1, Human IGF-1R (HIGF-1R), purified from …. The experiment in a line: competition with 125I-IGF-1 on purified HIGF-1R (IGF-1 displacement).
EIQRDCQGRPCGDAANFYDWFVQQDSE [F268]: the IC50 amounted to 370 nM.

Consider VGRASGFPENFYDWFGRQLSLQSGEQRR (N-terminal 'Ac-' as printed) [F287], for which the 50% inhibitory concentration (IC50) amounted to 7600 nM.

The molecule SFYSCLESLVNAPAEKSRGQWEGCRK [F296] had an IC50 of 57 nM.

Turning to VQDDCRGRPCGDADSFYEWFDQQAS [F263], the IC50 stood at 25 nM.

EVDRDCQARPCGDAANFYDWFGQQGTE [F269] came in with an IC50 of 890 nM.

Molecule SFYSCLESLVNGPAEKSRGQWDGCR [F249] returned an IC50 of 190 nM.

Molecule GSGGYASRDESFYEWFERQLA [F276] showed an IC50 of 1600 nM.

The molecule RGNVGGGSLDESFYEWFERQLGR [F271] gave an IC50 of 1700 nM.

In turn, ETGRECWGRPCGEADSFYDWFVQQGSE [F267] registered an IC50 of 1100 nM.

The molecule SFYSCLESLVQGPAEKSRGQWEGCRK [F293] displayed an IC50 of 89 nM.

SFYSCLESLVNAPAEKSRGQWDACRK [F298] yielded an IC50 of 64 nM.

B1 came in with a half-maximal inhibitory concentration (IC50) of 13000 nM.

The target in another test is T3, human insulin receptor (HIR) (human, UniProt P06213 28-1382, limits assumed).
T3 construct: preparation not described
The experiment in a line: HIR affinity, measured similarly to the IGF-1R displacement assay (tracer not named).
QFYGCLLDLSLGVPSFGWRRRCITA [F138] yielded a Kd of 46 nM.

For a further test, the target named is T4, His-tagged soluble recombinant human IGF-IR (srhIGF-1R-his; R&D systems) (human, UniProt P08069 31-935).
T4 construct: extracellular domain; Bought protein; also called extra-cellular domain of IGF-1R; not shown: His tag
Description: AlphaScreen competition with biotinylated hIGF-1 on srhIGF-1R-his. The protocol:
Binding Assays. […] Detection of the receptor ligand interaction was measured in an amplified luminescent proximity homogeneous assay (ALPHAScreen; BioSignal-Packard, Montreal). The assay was performed in 384-well Nunc™ white polystyrene microplates (Nalge Nunc International, Naperville, Ill.) with a final volume of 40 μL. […] Each concentration of competitor was assayed in duplicate. […] The second step of the assay was to add acceptor beads and the incubation continued for 0.5 hr. The final step was to add donor beads and the incubation continued for an additional 1 hr. […] Primary data were background corrected, normalized to buffer controls and then expressed as % Specific Binding. The data were fit to a four-parameter non-linear regression analysis (y=min+(max-min)/(1+10̂((log IC₅₀-x)*Hillslope))), which was used to determine IC₅₀ values. The Z′-factor for this assay is greater than 0.7 (Z′=1-(3σ++3σ−)/|μ+−μ−|) and the signal-to-background (SB) ratio was between 40 and 70.
(In general: In Alpha technology, singlet oxygen from a donor bead excites a nearby acceptor bead.)
As to EIQRDCQGRPCGDAANFYDWFVQQDSE [F268], the IC50 was 2300 nM.

Regarding VGRASGFPENFYDWFGRQLSLQSGEQRR (N-terminal 'Ac-' as printed) [F287], the IC50 turned out to be 8400 nM.

Consider SFYSCLESLVNAPAEKSRGQWEGCRK [F296], for which the IC50 turned out to be 7.5 nM.

On to VQDDCRGRPCGDADSFYEWFDQQAS [F263], for which the IC50 is 14 nM.

Turning to EVDRDCQARPCGDAANFYDWFGQQGTE [F269], the IC50 turned out to be 510 nM.

In the case of SFYSCLESLVNGPAEKSRGQWDGCR [F249], the IC50 came to 28 nM.

As for GSGGYASRDESFYEWFERQLA [F276], the IC50 was found to be 5100 nM.

For RGNVGGGSLDESFYEWFERQLGR [F271], the half-inhibitory concentration (IC50) turned out to be 5600 nM.

As to ETGRECWGRPCGEADSFYDWFVQQGSE [F267], the IC50 is 1900 nM.

Regarding SFYSCLESLVQGPAEKSRGQWEGCRK [F293], the IC50 was found to be 9.2 nM.

SFYSCLESLVNAPAEKSRGQWDACRK [F298]: the IC50 worked out at 5.2 nM.

B1: the IC50 stood at 1600 nM.
